Values of other authors, collected in patent US20230226072A1 (priority 2020, published 2023).

Details: after oral administration; cited from earlier work

For CN(C)c1ccc2nc3ccc(N(C)C)cc3[s+]c2c1.[Cl-] [methylene blue, [7-(dimethylamino)phenothiazin-3-ylidene]-dimethylazanium; chloride], the “time of peak plasma concentrations” value is given as “two”.
